Only some compounds are listed: those with a hit (about 2.3% of all), similar ones and a draw of the others.
NRP1-CendR mod: modulators of CendR peptide binding to human neuropilin-1. O14786. FAM-RPARPAR peptide binding to NRP-1, fluorescence polarization. inhibition, % at 25 µM. 0.85% of 360,000 active;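 active = inhibition or corrected inhibition above about 18%, plus a signal ratio from 0.5 to 1.5, limit read from the data, passing the limit was not always enough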
ASAP1 inh: ASAP1 ArfGAP inhibition; Q9ULH1; ASAP1-stimulated ARF1 GTP hydrolysis, GDP FP detection; inhibition, % at 16.5 µM; 0.19% of 360,000 active; in the data active = inhibition above about 25%
UUG fidelity: modulators of start codon recognition fidelity in yeast. S. cerevisiae UUG-firefly luciferase reporter, luminescence/redox ratio. activity score, % at 18.7 µM. 0.13% of 350,000 active. AID 602363;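 active = replicate mean at a twofold rise or more, about +100% in these data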;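 also: firefly luciferase made from a UUG start codon reports start codon fidelity; reporter light over untreated wells divided by growth signal over untreated wells; some hits fall short of that in this replicate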
MC4R barr agon: activates human MC4R beta-arrestin recruitment. U2OS MC4R beta-arrestin complementation, luminescence; percent of melanotan II response, DMSO zero. activation, % at 8.9 µM. 0.98% of 360,000 active;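 active = activation above a per-plate cutoff, the mean activation of sample wells on that plate plus 3 SD, cut at about 8% in these data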
ARFGAP1 inhibitor: rat ARFGAP1 inhibition; Q62848; Arfgap1-stimulated ARF1 GTP hydrolysis, GDP FP detection; inhibition, % at 16.5 µM; 0.26% of 360,000 active; AID 651572;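 active = inhibition above a per-plate limit, mean inhibition of low control wells plus 3 SD, cut at about 25% in these data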
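Material: rat Arfgap1 catalytic domain, aa 1-136; also added: human ARF1(Δ1-17)-GTP substrate; compound dosing: one concentration, 16.5 µM, DMSO 1.26%; incubation: GTP hydrolysis reaction 2 h at 25 °C; measured by: Tracer-displacement fluorescence polarization with EDTA stop, 620/688 nm; evaluation: % inhibition from polarization; repeats: one replicate per compound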
MC4R antagonist: antagonists of human melanocortin 4 receptor (MC4R). P32245. MC4R-expressing cells, MTII-stimulated cAMP, LANCE TR-FRET. inhibition, % at 6.5 µM. 0.48% of 360,000 active. AID 540295;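 active = inhibition above its plate's cutoff, the mean of tested wells on that plate plus 3 SD, cut at about 29% in these data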
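material = U2OS cells stably expressing human melanocortin 4 receptor (MC4R) | also added = Melanotan II challenge | dosing = single nominal compound dose of 6.5 µM | detection = TR-FRET with Eu-cAMP and labeled anti-cAMP, 671 nm | replication = singlicate | timing = compound 30 min, challenge 1 h, detection 1 h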
Hits are given with their value; i = inactive; nt = not tested or not shown.

SMILES | NRP1-CendR mod | ASAP1 inh | UUG fidelity | MC4R barr agon | ARFGAP1 inhibitor | MC4R antagonist
CC(C)Oc1ccc(C2c3c(oc4ccccc4c3=O)C(=O)N2CCCN2CCOCC2)cc1 (centres undefined) | i | i | i | i | i | i
O=C1c2oc3ccccc3c(=O)c2C(c2cccnc2)N1CCCN1CCOCC1 (centres undefined) | 36.1 | i | i | i | i | i
COc1cc(/C=C2/C(=N)N3C=CSC3=NC2=O)ccc1OCCCOc1cc(C)ccc1C | i | i | nt | 31.5 | i | i
COc1ccccc1OCCOc1ccc(/C=C2/C(=N)N3OC(C)=CC3=NC2=O)cc1OC | i | i | i | 18.8 | i | i
CC(=O)N(C)C[C@@H]1Oc2ncc(C#CCC3CCCC3)cc2C(=O)N([C@H](C)CO)C[C@H]1C | nt | nt | i | nt | nt | nt
COCC(=O)Nc1ccc2c(c1)C(=O)N(C)[C@H]1CC[C@@H](CC(=O)NCC3CC3)O[C@H]1CO2 | nt | nt | i | nt | nt | nt
COc1ccc(C(=O)CNc2ccccc2C#N)cc1 | i | i | i | 8.3 | i | i
COc1ccc(C(=O)CNc2ccccc2CO)cc1 | i | i | nt | i | i | i
C[C@@H]1CN([C@H](C)CO)C(=O)Cc2cc(NC(=O)Cc3cn(C)c4ccccc34)ccc2O[C@H]1CN(C)Cc1ccc(Cl)c(Cl)c1 | nt | nt | i | nt | nt | nt
CN(Cc1ccc(F)cc1)C(=O)c1cccc(OC2CCN(C3CCCC3)CC2)c1 | 26.1 | i | i | i | i | i
COc1ccc(C2=CC(c3ccc(F)cc3)n3nnnc3N2)cc1 (centres undefined) | 35.4 | i | i | i | i | i
COc1cccc(N2[C@@H](CC(C)=O)c3cc(C(F)(F)F)ccc3S2(=O)=O)c1 | i | i | i | i | i | i
COc1cccc(N2[C@@H](CC(C)=O)c3ccccc3S2(=O)=O)c1 | 22.1 | i | i | i | i | i
C[C@@H]1CN([C@@H](C)CO)C(=O)c2cccc(NS(=O)(=O)c3ccc(F)cc3)c2O[C@H]1CN(C)C(=O)Nc1ccccc1 | nt | nt | i | nt | nt | nt
O=C1NC[C@@H](c2ccccc2)OC(=O)[C@@H](Cc2ccc(F)cc2)CC/C=C/C[C@@H]1CC(=O)N(CCO)Cc1ccccc1 | 30.8 | i | i | i | i | i
CC(C)(C)OC(=O)C[C@@H]1C/C=C\C[C@@H](CC(=O)N(CCO)Cc2ccccc2)C(=O)NCCOC1=O | i | i | i | i | i | i
O=C1CCC/C=C\C[C@@H](CC(=O)N(CCO)Cc2ccccc2)C(=O)N2CCC[C@H]2CO1 | 27.7 | i | i | i | i | i
O=C1CC/C=C\C[C@@H](CC(=O)N(CCO)Cc2ccccc2)C(=O)N2CCC[C@H]2CO1 | i | i | i | i | i | i
CC(C)(C)OC(=O)C[C@H]1C/C=C\C[C@H](CC(=O)N(CCO)Cc2ccccc2)C(=O)NCCOC1=O | 29.2 | i | i | i | i | i
CC(C)(C)OC(=O)C[C@H]1C/C=C\C[C@@H](CC(=O)NCCO)C(=O)NC[C@@H](c2ccccc2)OC1=O | 20.1 | i | i | i | i | i
C[C@@H]1CN([C@@H](C)CO)S(=O)(=O)c2ccc(-c3cccc(F)c3)cc2O[C@H]1CN(C)S(=O)(=O)c1ccc(F)cc1 | nt | nt | i | nt | nt | nt
CC(C)(C)OC(=O)C[C@H]1C/C=C\C[C@H](CC(=O)N(CCO)Cc2ccccc2)C(=O)N[C@@H](Cc2ccccc2)COC1=O | 30.4 | i | i | i | i | i
NC(=O)C1CCN(C(=O)C2CCC(=O)N(C3CCCCCC3)C2)CC1 (centres undefined) | i | i | i | i | i | i
NC(=O)C1CCN(C(=O)C2CCC(=O)N(CC3CCCCC3)C2)CC1 (centres undefined) | 18.2 | i | i | i | i | i
CC(C)N(C(C)C)S(=O)(=O)c1ccc(N2CCc3ccccc3C2)nc1 | 30.4 | i | i | i | i | i
Cc1ccc(S(=O)(=O)NCC[C@@H]2CC[C@H](NC(=O)Nc3cccc(F)c3)[C@@H](CO)O2)cc1 | nt | nt | i | nt | nt | nt
COc1ccc2c(c1)OC(c1ccccc1)(C(F)(F)F)NC2=O (centres undefined) | i | i | nt | i | i | i
CC(C)Oc1ccc2c(c1)OC(c1ccccc1)(C(F)(F)F)NC2=O (centres undefined) | i | i | i | 8.5 | i | i

From PubChem
